Data taken from publication PMC3265452 (PLoS Neglected Tropical Diseases, 2012).

The chains behind the UniProt entries cited, without tags or fusion partners. Residues count along the entry.
UniProt H6D5H2, 1-476: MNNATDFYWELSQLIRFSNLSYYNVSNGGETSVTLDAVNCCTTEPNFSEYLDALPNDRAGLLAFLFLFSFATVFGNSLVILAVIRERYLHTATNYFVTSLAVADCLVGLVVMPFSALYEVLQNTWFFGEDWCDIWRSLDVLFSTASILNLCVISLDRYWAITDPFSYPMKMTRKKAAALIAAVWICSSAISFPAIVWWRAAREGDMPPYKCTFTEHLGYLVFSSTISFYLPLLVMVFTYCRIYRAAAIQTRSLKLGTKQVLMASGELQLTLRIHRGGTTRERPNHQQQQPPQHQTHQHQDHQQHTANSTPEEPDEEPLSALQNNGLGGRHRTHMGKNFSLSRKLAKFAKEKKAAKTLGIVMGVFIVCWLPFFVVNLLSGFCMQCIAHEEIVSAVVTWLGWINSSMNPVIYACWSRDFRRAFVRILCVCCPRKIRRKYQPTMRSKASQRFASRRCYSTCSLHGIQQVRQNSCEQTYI
UniProt P21728, whole entry: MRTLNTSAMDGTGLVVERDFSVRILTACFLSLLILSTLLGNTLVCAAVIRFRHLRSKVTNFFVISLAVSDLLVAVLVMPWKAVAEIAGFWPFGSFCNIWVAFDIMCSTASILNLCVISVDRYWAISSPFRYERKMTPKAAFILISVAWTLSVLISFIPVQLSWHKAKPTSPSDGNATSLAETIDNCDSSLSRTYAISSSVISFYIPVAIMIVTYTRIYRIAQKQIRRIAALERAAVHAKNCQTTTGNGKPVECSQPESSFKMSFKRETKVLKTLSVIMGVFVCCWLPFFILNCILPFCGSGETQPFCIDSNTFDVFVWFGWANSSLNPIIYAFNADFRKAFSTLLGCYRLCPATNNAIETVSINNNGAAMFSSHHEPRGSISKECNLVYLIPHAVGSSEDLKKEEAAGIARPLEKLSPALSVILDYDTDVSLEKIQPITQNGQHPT

Key:
[1] = target: T1, AaDOP2 (Aedes aegypti, UniProt H6D5H2); assay: AaDOP2 antagonist screen of the LOPAC1280 library (HEK-CRELuc-Aadop2 cells, luminescence); conditions: for inhibition at 10 µM: read-out: % of the SCH23390 effect (percent inhibition of receptor response relative to the SCH23390 control)
[2] = target: T1, AaDOP2; assay: cell-based
[3] = target: T1, AaDOP2; conditions: from IC50 values at AaDOP2 and hD1
[4] = target: human D1 dopamine receptor (hD1) (Homo sapiens, UniProt P21728); assay: cAMP accumulation secondary assay, hD1-expressing cells

Compound	Compound effect (percent receptor signaling in presence of test compound, relative lux units relative to the SCH23390 control) [1]	inhibition at 10 µM [1] [%]	other results
CC(C)(C)[C@]1(O)CCN2C[C@H]3c4ccccc4CCc4cccc(c43)[C@@H]2C1 [Compound 440, (+)-Butaclamol hydrochloride, reference compound]	14		% of the SCH23390 effect (percent inhibition of receptor response relative to the SCH23390 control) [1]: 87%; IC50 [2]: 0.48 ± 0.033 µM
Cc1nc2n(c(=O)c1CCN1CCC(c3noc4cc(F)ccc34)CC1)CCCC2 [Compound 1068, Risperidone]	17	83	
L-Methionine sulfoximine [Compound 776]	103		
(±)-AMT hydrochloride [Compound 113]	103		
OCCN1CCN(CC/C=C2/c3ccccc3Sc3ccc(C(F)(F)F)cc32)CC1 [Compound 541]	12		Relative fold selectivity for AaDOP2 vs. hD1 [3]: 0.55 fold; IC50 [4]: 0.011 ± 0.0019 µM
CCN(CC)CC(=O)Nc1c(C)cccc1C [Compound 707, Lidocaine hydrochloride]	86		
CN1[C@@H]2CC[C@H]1C[C@@H](OC(c1ccccc1)c1ccccc1)C2 [Compound 188, Benztropine mesylate]	11	89	
OCCN1CCN(CCCN2c3ccccc3Sc3ccc(C(F)(F)F)cc32)CC1 [Compound 520, Fluphenazine dihydrochloride]	18	82	
Cl.NCCc1ccc(O)cc1 [Compound 1162, 4-Hydroxyphenethylamine hydrochloride]	121		
CN(C)CCCN1c2ccccc2CCc2ccccc21 [Compound 655, Imipramine hydrochloride]	4	96	

Structures can show the parent of a compound that is named as a salt.
